In patent publication US10882856B2 (BeiGene, Ltd., priority 2017, dated 2021) one finds EC50 and IC50 data, which are given here for two compounds.

Protein sequences, listed by entry. Tags and fused reporters are not part of them.
UniProt P14902, whole entry: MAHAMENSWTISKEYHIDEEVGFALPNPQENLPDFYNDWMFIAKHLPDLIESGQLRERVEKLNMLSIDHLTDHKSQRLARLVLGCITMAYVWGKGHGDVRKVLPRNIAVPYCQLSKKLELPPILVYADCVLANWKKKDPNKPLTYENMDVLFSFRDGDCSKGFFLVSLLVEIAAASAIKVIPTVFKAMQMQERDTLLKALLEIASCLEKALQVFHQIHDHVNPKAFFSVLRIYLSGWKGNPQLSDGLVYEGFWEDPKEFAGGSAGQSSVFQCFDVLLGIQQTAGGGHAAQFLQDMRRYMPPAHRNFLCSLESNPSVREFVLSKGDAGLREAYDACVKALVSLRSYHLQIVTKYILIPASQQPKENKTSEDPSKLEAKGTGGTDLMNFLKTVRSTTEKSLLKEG
UniProt P48775, whole entry: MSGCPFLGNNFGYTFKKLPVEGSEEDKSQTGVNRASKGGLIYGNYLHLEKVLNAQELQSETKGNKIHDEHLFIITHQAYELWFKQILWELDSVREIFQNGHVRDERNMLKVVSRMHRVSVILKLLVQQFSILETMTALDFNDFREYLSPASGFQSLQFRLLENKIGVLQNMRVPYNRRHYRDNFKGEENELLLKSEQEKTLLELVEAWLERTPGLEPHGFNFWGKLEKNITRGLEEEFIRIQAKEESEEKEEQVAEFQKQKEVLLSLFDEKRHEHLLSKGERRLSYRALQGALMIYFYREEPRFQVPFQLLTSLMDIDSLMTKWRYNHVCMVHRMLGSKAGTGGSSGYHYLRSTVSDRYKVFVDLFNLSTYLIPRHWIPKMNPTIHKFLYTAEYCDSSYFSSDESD

Test [1] deals with T1, IDO1 (Homo sapiens, UniProt P14902). Put plainly: Hela cell-based IDO1 assay. The following applies: read-out: Cell-Based EC50 Hela IDO1; Hela cells. An outline of the steps:
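HeLa cells were seeded at 8000 per well in 96-well plates in phenol red-free DMEM with 10% FBS. After 4 hours, DMSO-diluted compound dilutions were added with IFN-γ (final 100 ng/mL) and 0.4 mM L-Trp, and cells were kept 48 hours at 37 °C, 5% CO2. Supernatant was deproteinised with trichloroacetic acid, and kynurenine was measured at 480 nm after adding 2% 4-(dimethylamino)benzaldehyde. Potency came from four-parameter logistic fits in XLfit.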

Test [2] concerns the target T1, IDO1. Description: IDO1 enzymatic assay. Type of test: biochemical. To be noted: read-out: Enzyme IC50 IDO1. An outline of the steps:
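Recombinant N-terminally His-tagged IDO1 purified from E. coli (50 nM) was incubated with compound or DMSO and 1.3 mM D-tryptophan, 5 mM L-ascorbic acid, methylene blue and 0.4 mg/mL catalase. The buffer was 50 mM potassium phosphate pH 7.5 with 0.1% BSA, at 24 °C for 1.5 hours. N'-formylkynurenine formation was then read continuously at 321 nm for 1 hour, and activity was taken as the slope. IC50 was calculated from remaining enzyme activity across increasing compound concentrations.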

For test [3], the target named is cellular TDO2 in HEK293-TDO2 cells (Homo sapiens, UniProt P48775). Description: 293-TDO2 cell-based assay (Kyn colorimetric). To be noted: read-out: Cell-Based EC50 293-TDO2, 48 hours of incubation. How it is done:
The inhibitory activity of TDO2 inhibitors is determined by using a colorimetric reaction to measure Kyn generated from L-Trp (L-Tryptophon) oxidation by cellular TDO2 in HEK293-TDO2 cells stably transfected with a plasmid expression of Tryptophan 2,3-dioxygenase (for short, 293-TDO2).
HEK293 cells were obtained from the American Type Culture Collection and 293-TDO2 were recovered in 10% FBS-containing phenol red-free DMEM medium. Cells were plated onto a 96-well plate (100 μl/well) at 10000 cells per well and kept at 37° C. in a humidified incubator supplied with 5% CO2. 4 hours later, Compounds at different concentrations diluted in dimethylsulfoxide (DMSO) were added to plate. Cells were kept at 37° C. in a humidified incubator supplied with 5% CO2. After 48 hours of incubation, 100 μl supernatant from each well was removed to a new plate. The protein in the medium was precipitated with the addition of 8 μl 6N trichloroacetic acid. The plate was incubated at 60° C. for 30 minutes and then centrifugation at 2500 rpm for 10 minutes to remove sediments. 80 μl supernatants were carefully removed to a new clean plate and added with an equal volume of 2% 4-(Dimethylamino) benzaldehyde (D2004, sigma) dissolved in glacial acetic acid. The absorbance at 480 nm wavelength derived from Kyn was measured using a PHERAstar FS plate reader (BMG LABTECH). […]

The target of a further test is TDO (Homo sapiens, UniProt P48775). Put plainly: TDO enzymatic assay. To be noted: read-out: Enzyme IC50 TDO. In kind it is biochemical. An outline of the steps: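 The IDO1 enzymatic set-up was reused for TDO: recombinant C-terminally His-tagged TDO purified from E. coli (100 nM) was combined with 0.5 mM L-tryptophan (Km concentration), ascorbic acid, methylene blue, catalase, and potassium phosphate pH 7.5 containing BSA, and incubated for 1.5 hours. Activity was taken as the slope of N'-formylkynurenine absorbance, read continuously at 321 nm. IC50 values came from the remaining enzyme activity over increasing compound concentrations.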

pEC50, pIC50: −log10 of the molar value.

`O=Cc1ccc(C2CCC(C(O)c3c(C4CC4)ccc4cncn34)CC2)cc1` (single isomer, unassigned) [D123b]: the values for the pEC50 (on IDO1 [1]; in test [3]) were 5.02 and less than 5.00, respectively. On IDO1 [2], the pIC50 is less than 5.00.

In the case of `O=Cc1ccc(C2CCC(C(O)c3c(C4CC4)ccc4cncn34)CC2)cc1` (single isomer, unassigned) [D123a], the pEC50 is 6.56 at IDO1 [1] and less than 5.00 in test [3]. Further, the pIC50 on IDO1 [2] was 7.72; on TDO, 4.89.
